Experimental data reported in patent US9708375B2, “Inhibitory polypeptides specific to WNT inhibitors” (AMGEN INC., priority 2013, dated 2017).
pIC50: −log10 of the molar value.

Assays:
SOST = molecular target: T1, SOST (Homo sapiens, UniProt Q9BQB4); test: SOST binding ELISA (peptide phage, phagemid clones, peptibodies); conditions: 0.01 μg/ml antigen plate-coating concentration
T1 construct: avi tag (biotinylated)
T1 sequence (Q9BQB4 24-213): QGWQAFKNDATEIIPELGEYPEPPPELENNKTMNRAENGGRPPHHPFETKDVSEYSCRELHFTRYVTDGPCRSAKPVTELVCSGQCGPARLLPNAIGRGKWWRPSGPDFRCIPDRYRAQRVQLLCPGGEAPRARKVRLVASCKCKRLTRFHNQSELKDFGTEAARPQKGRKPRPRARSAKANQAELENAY
Excerpt: TN7 Library (diversity: 2.3×109, 2.3×10^11 pfu panned), TN8 Library (diversity: 5×109, 5×10^11 pfu panned), TN12 Library (diversity: 1.4×109, 1.4×1011 pfu panned), and Linear Library (diversity: 1.05×1010, 1.05×10^11 pfu panned) from Dyax Corp. (55 Network Drive Burlington, Mass. 01803) were subtracted with biotinylated human WISE and biotinylated avi-human ERK2 coated Streptavidin magnetic beads (Dynal), then panned against biotinylated recombinant avi-Human Sclerostin coated Streptavidin magnetic beads. Bound phages were eluted with anti-SOST Ab mixture, mLRP6-His, or TEA. Output phage pools were subjected to an additional subtraction step with biotin human WISE coated Streptavidin magnetic beads. After three rounds of panning, peptide phage clones were screened for SOST binding and counter-screened for no huWISE binding by ELISA. Neutralizing anti-SOST peptide phages were identified by competition ELISA in the presence of three neutralizing anti-SOST antibodies (AB5, 47B10, and 38B12). A total of 48 neutralizing peptides were identified from RD2 pools (see table 20) and 47 from RD3 pools (see table 21).
Selected peptides were converted to peptibodies in bulk by fusing the peptide sequence flanked by […] and […] as NcoI-PstI fragments to N-terminus and C-terminus of the human Fc linked with a G5 linker in between in pTT5 vector. Converted peptibodies were expressed transiently in 293 6E cells and purified using MabSelect resin in an AKTA purification system. Purified peptibodies were screened by SOST binding ELISA, anti-SOST Ab competition ELISA, and competition AlphaScreen assay with anti-SOST Loop2 Ab and LRP6 (see paragraph [00183]) to confirm their SOST neutralizing activity. They were counter-screened against huWISE by ELISA and AlphaScreen assay for no huWISE binding.
Phagemid clones, obtained after three rounds of panning with final antigen bead-coating concentration at 0.025 μg/ml or 0.01 μg/ml, were screened by ELISA at 0.025 μg/ml antigen plate-coating concentration and compared to the parental phagemid phage. […] A total of 16 R3.11 mutants, 31 R3.26 mutants, and 8 82.182 mutants (see table 23) were selected to be reformatted into pepti-Ig molecules.

rat Sclerostin = molecular target: T2, rat Sclerostin (Rattus norvegicus, UniProt Q99P67); test: Rat Sclerostin/muLRP6-his AlphaScreen assay (untagged fusions, peptibodies); format: binding; conditions: peptibodies from primary screen
T2 sequence (Q99P67 24-213 limits assumed): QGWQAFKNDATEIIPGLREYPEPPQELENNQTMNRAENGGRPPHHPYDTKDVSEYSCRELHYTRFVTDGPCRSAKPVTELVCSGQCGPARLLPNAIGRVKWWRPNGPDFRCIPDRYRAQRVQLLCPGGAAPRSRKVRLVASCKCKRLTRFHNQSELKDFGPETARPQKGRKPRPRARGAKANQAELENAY
Protocol: All dilutions were made in the above buffer. The microtiter plate was then sealed and incubated overnight at 20° C. Inhibition was measured as a decrease in chemiluminescent signal as measured on the EnVision (Perkin Elmer) using excitation at 680 nm and emission at 520-620 nm. Selected peptides were converted to peptibodies in bulk by fusing the peptide sequence flanked by [NT] and [NT] NcoI-PstI fragments to N-terminus and C-terminus of the human Fc linked with a G5 linker in between in pTT5 vector. Converted peptibodies were expressed transiently in 293 6E cells and purified using MabSelect resin in an AKTA purification system. Purified peptibodies were screened by SOST binding ELISA, anti-SOST Ab competition ELISA, and competition AlphaScreen assay with anti-SOST Loop2 Ab and LRP6 (see paragraph [00183]) to confirm their SOST neutralizing activity. […] Fifteen peptibodies showing LRP6 inhibition activity in rat SOST/muLRP6 AlphaScreen assay were screened in WNT1 assay (see [00185]).

Row | binding to SOST by ELISA (SOST) | pIC50 (rat Sclerostin) | Sequence
1 | no binding | 6.29 | DWVCGVDIECEMW [Avimer R3.32]
2 | no binding | 6.81 | LPACWDDVNYESTACWLD [Avimer R3.11]
3 | weaker binding |  | WPLCQAEWEGWYEPCMYW [Avimer R2.182]
4 | no binding |  | YAECMDSLEQLDYNCFLP [Avimer R3.26]
